The target of the assay is Prothrombin (Homo sapiens, UniProt P00734). As to the kind of experiment: Inhibition of human thrombin using Ac-FVR-AMC as substrate incubated for 10 mins prior to substrate addition measured for 10 min by fluorescence assay.

Structures are written as SMILES.

As for `CC1CNc2c(cccc2S(=O)(=O)N[C@@H](CCCNC(=N)N)C(=O)N2CC[C@@H](C)C[C@@H]2C(=O)O)C1` (stereo partly specified) [ARGATROBAN], the 50% inhibitory concentration (IC50) was 9.46 nM.

Broadly, the IC50 is the midpoint of a concentration-inhibition curve.

The values above are taken from ChEMBL document CHEMBL3414490 (Eur J Med Chem, 2015).
